# Reference: ChEMBL document CHEMBL4613250, “Discovery of 4-((2S,4S)-4-Ethoxy-1-((5-methoxy-7-methyl-1H-indol-4-yl)methyl)piperidin-2-yl)benzoic Acid (LNP023), a Factor B Inhibitor Specifically Designed To Be Applicable to Treating a Diverse Array of Complement Mediated Diseases” (J Med Chem, 2020)
# Amino acid sequences for entries named in this document (tags omitted).
# UniProt P04186, whole entry: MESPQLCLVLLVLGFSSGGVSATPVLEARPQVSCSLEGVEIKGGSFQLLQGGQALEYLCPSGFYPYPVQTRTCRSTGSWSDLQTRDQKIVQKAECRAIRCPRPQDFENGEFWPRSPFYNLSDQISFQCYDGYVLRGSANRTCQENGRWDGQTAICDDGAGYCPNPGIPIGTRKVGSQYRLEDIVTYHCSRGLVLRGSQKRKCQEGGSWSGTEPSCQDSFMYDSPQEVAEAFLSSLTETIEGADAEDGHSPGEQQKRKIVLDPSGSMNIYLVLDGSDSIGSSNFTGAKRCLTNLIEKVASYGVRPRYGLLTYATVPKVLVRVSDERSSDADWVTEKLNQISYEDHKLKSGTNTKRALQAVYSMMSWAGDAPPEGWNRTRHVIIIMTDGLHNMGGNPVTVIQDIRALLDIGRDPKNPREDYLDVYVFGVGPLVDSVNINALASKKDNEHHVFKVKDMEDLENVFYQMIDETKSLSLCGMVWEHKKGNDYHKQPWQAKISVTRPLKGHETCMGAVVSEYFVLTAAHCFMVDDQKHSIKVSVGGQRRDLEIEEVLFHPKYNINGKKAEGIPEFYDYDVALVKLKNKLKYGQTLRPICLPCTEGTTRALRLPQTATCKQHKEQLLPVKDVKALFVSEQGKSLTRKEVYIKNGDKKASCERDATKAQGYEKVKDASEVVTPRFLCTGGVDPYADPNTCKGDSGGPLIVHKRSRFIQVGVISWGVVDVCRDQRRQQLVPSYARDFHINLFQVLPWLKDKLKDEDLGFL
# Target: Complement factor B (Mus musculus, UniProt P04186)
# Assay: Inhibition of serine protease factor B in 50% mouse serum assessed as reduction in C3b deposition pre-incubated for 15 mins before activated zymosan A stimulation for 50 mins by ELISA
# Format: cell-free
row,Compound,IC50 [nM]
1,CCO[C@H]1CCN(Cc2c(C3CC3)cc(C)c3[nH]ccc23)[C@H](c2ccc(C(=O)O)cc2)C1,80
2,Cc1cc(C)c2[nH]ccc2c1CN1CCCCC1c1ccc(C(=O)O)cc1 (stereo not given),2280

# Next, values leading:
row,IC50 [nM],Compound
1,150,COc1cc(C)c2[nH]ccc2c1CN1CC[C@H](OC)C[C@H]1c1ccc(C(=O)O)cc1
2,120,CCO[C@H]1CCN(Cc2c(C)cc(C)c3[nH]ccc23)[C@H](c2ccc(C(=O)O)cc2)C1
3,160,CO[C@H]1CCN(Cc2c(C)cc(C)c3[nH]ccc23)[C@H](c2ccc(C(=O)O)cc2)C1
